Here are results for one molecule from ChEMBL document CHEMBL5214961, “Novel Allosteric Inhibitor-Derived AKT Proteolysis Targeting Chimeras (PROTACs) Enable Potent and Selective AKT Degradation in KRAS/BRAF Mutant Cells” (J Med Chem, 2022).

Molecules are shown by their SMILES.

This test concerns SW-620. Briefly: Antiproliferative activity against human SW620 cells harboring KRAS mutant assessed as inhibition of cell growth incubated for 5 days by IncuCyte live-cell imaging analysis. The format is functional, cell-based. Particulars: SW-620, 120 h, time 5 day.

As usually defined, the GI50 is the concentration that inhibits growth by half. For the molecule `Nc1ncccc1-c1nc2ccc(-c3ccccc3)nc2n1-c1ccc(C2(N)CCC2)cc1` [MIRANSERTIB], the GI50 is 5.2 µM.
